Biological target: rat recombinant D3 receptors (Rattus norvegicus (Rat), UniProt P19020)
Assay: D3 receptor binding

Chains of the proteins cited; added tags and fusions are not shown.
UniProt P19020, whole entry: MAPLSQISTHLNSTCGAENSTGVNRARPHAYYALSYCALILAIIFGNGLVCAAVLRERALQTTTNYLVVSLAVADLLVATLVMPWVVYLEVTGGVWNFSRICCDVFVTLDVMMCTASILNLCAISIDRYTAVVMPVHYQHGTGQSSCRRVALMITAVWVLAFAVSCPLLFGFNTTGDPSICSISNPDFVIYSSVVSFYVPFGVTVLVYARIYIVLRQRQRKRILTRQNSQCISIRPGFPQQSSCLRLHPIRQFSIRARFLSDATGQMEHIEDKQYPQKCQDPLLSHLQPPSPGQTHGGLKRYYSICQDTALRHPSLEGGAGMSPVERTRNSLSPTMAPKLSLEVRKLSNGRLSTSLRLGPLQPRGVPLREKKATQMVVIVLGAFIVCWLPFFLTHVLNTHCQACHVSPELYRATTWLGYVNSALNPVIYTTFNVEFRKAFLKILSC

## CNc1nc(Cl)c(Cl)c(N2CCN(CC[C@H]3CC[C@H](NC(=O)N4CCOCC4)CC3)CC2)n1 [Compound 7, trans-morpholine-4-carboxylic acid (4-{2-[4-(5,6-dichloro-2-methylamino-pyrimidin-4-yl)-piperazin-1-yl]-ethyl}-cyclohexyl)-amide]
  Sel. = D2/D3 selectivity, Ki for D2 receptor divided by Ki for D3 receptor: 7

Source: patent US8802672B2, “Pyrimidinyl-piperazines useful as D3/D2 receptor ligands” (Richter Gedeon Nyrt., priority 2007, dated 2014)
